According to ChEMBL document CHEMBL1641598, “Preparation, in vitro screening and molecular modelling of symmetrical 4-tert-butylpyridinium cholinesterase inhibitors--analogues of SAD-128” (2011):
The source made the active and inactive calls. The rule behind the calls is not given here.

By UniProt entry, the sequences of proteins in these tests, tags left out. Where a name states a change or a piece, a line headed by the entry shows the natural chain unless it says otherwise.
UniProt P06276, whole entry, looked up: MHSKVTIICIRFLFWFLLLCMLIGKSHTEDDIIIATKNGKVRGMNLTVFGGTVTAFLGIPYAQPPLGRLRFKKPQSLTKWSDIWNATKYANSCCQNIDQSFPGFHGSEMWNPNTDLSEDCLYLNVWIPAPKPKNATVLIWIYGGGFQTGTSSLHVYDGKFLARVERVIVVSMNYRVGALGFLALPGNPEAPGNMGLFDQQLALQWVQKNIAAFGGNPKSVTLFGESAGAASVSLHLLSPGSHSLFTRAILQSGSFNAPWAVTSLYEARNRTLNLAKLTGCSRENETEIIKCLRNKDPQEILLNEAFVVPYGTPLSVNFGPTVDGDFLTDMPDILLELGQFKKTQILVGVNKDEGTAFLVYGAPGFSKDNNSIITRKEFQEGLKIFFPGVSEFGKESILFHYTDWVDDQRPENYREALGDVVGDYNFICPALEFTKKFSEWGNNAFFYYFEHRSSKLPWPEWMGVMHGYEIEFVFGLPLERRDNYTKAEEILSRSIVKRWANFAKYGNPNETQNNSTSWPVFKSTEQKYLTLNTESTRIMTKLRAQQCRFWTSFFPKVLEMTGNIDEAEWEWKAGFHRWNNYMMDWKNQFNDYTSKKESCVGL
UniProt P22303: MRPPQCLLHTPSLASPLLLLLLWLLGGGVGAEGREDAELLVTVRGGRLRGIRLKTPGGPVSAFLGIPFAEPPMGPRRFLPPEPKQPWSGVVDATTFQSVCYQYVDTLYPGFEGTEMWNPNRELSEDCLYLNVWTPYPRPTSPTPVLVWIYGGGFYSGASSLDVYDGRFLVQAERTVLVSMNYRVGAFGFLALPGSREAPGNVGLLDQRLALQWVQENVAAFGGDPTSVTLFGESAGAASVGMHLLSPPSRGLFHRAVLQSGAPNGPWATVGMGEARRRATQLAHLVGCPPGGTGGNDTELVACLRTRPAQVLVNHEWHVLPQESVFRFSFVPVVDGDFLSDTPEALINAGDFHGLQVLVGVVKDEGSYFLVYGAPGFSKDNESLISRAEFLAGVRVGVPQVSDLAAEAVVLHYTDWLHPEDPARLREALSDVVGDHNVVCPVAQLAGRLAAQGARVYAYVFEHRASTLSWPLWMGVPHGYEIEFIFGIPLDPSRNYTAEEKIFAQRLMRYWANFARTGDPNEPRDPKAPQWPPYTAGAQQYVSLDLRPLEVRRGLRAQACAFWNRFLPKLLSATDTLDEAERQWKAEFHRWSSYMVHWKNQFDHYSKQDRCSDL

Biological target: Cholinesterase (Homo sapiens) (UniProt P06276)
Assay: Inhibition of human recombinant BChE at 100 mM to 1 nM

With `C[n+]1ccccc1C=NO` the inhibition was “inactive”.

Biological target: Cholinesterases; ACHE & BCHE (Homo sapiens) (UniProt P06276+P22303)
Assay: Selectivity index, ratio of IC50 for human recombinant BChE to IC50 for human recombinant AChE

In order of rising Ratio IC50:
1. CCN(CC)C(C)CN1c2ccccc2Sc2ccccc21 (stereo not drawn)  0.002
2. CC(C)(C)c1cc[n+](Cc2ccccc2C[n+]2ccc(C(C)(C)C)cc2)cc1  0.2
3. CC(C)(C)c1cc[n+](CCCCC[n+]2ccc(C(C)(C)C)cc2)cc1  0.2
4. CC(C)(C)c1cc[n+](CC[n+]2ccc(C(C)(C)C)cc2)cc1  1.2
5. CC(C)(C)c1cc[n+](CCCC[n+]2ccc(C(C)(C)C)cc2)cc1  1.5
6. CC(C)(C)c1cc[n+](C[n+]2ccc(C(C)(C)C)cc2)cc1  1.7
7. CC(C)(C)c1cc[n+](C/C=C\C[n+]2ccc(C(C)(C)C)cc2)cc1  2.2
8. CC(C)(C)c1cc[n+](CCCCCCCCCCCC[n+]2ccc(C(C)(C)C)cc2)cc1  2.7
9. CC(C)(C)c1cc[n+](Cc2cccc(C[n+]3ccc(C(C)(C)C)cc3)c2)cc1  2.7
10. CC(C)(C)c1cc[n+](CCCCCCCC[n+]2ccc(C(C)(C)C)cc2)cc1  3.2
11. CC(C)(C)c1cc[n+](CCC[n+]2ccc(C(C)(C)C)cc2)cc1  3.8
12. CC(C)(C)c1cc[n+](CCCCCCCCC[n+]2ccc(C(C)(C)C)cc2)cc1  4.1
13. CC(C)(C)c1cc[n+](CCCCCCCCCCC[n+]2ccc(C(C)(C)C)cc2)cc1  4.2
14. CC(C)(C)c1cc[n+](Cc2ccc(C[n+]3ccc(C(C)(C)C)cc3)cc2)cc1  4.3
15. CC(C)(C)c1cc[n+](CCCCCCCCCC[n+]2ccc(C(C)(C)C)cc2)cc1  5
16. CC(C)(C)c1cc[n+](/C=C2\C=CC3=CC/C(=C\[n+]4ccc(C(C)(C)C)cc4)C=C3C2)cc1  5
17. CC(C)(C)c1cc[n+](C/C=C/C[n+]2ccc(C(C)(C)C)cc2)cc1  5.6
18. CC(C)(C)c1cc[n+](COC[n+]2ccc(C(C)(C)C)cc2)cc1  6.2
19. CC(C)(C)c1cc[n+](CCOCC[n+]2ccc(C(C)(C)C)cc2)cc1  13
20. CC(C)(C)c1cc[n+](CCCCCC[n+]2ccc(C(C)(C)C)cc2)cc1  19
21. CC(C)(C)c1cc[n+](CCCCCCC[n+]2ccc(C(C)(C)C)cc2)cc1  44
22. C=CC[N+](C)(C)c1ccc(CCC(=O)CCc2ccc([N+](C)(C)CC=C)cc2)cc1  11800
